Source: patent publication US20250340556A1, “PYRIMIDOPYRIMIDONE COMPOUNDS AND METHODS OF USE THEREOF” (Soltego, Inc., priority 2022, published 2025)

Tests used:
[1] = test system: living human skin explants; test: Melanin in living human skin explants, Fontana-Masson staining (Example 8); type: cell-based; conditions: topical, Example 8 conclusion
B16 4A5 cells = test: B16 4A5 melanin content normalised to protein; conditions: 72 h; for production of melanin: vs DMSO 0.06%

SMILES | melanin production in living human skin explants [1] | production of melanin (B16 4A5 cells; 1, 0.3 and 0.1 μg/ml) | production of melanin in comparison with the 0.06% DMSO (B16 4A5 cells; 0.3 μg/ml) | production of melanin in comparison with the 0.06% DMSO (B16 4A5 cells; 1 μg/ml) | production of melanin (B16 4A5 cells; 1 and 0.3 μg/ml)
Cc1cccc(C)c1N1Cc2cnc3nc2N(CCC(=O)OCc2cc(ccc2N2CCN(C)CC2)N3)C1=O [SLT-023] | increased melanin production | significantly increased |  |  | 
Cc1cccc(C)c1N1Cc2cnc3nc2N(CCCC(=O)OCc2cc(ccc2N2CCN(C)CC2)N3)C1=O [SLT-026] | increased melanin production |  |  |  | 
Cc1cccc(C)c1N1Cc2cnc3nc2N(CCCCOC(=O)c2cc(ccc2N2CCN(C)CC2)N3)C1=O [SLT-042] | increased melanin production |  |  |  | 
Cc1cccc(C)c1N1Cc2cnc3nc2N(CCCOC(=O)Cc2cc(ccc2N2CCN(C)CC2)N3)C1=O [SLT-048] | increased melanin production |  | 180% | 250% | significantly increase
